Test results from patent US20070081991A1, “Compositions and methods for modulation of immune responses” (Pepgen Corporation, priority 2001, published 2007).
Entries after “also recorded” stand apart in the source; their conditions may differ.

Protein sequences, listed by entry. Tags and fused reporters are not part of them. Lines headed by an entry give the natural chain unless they say otherwise; changes in a name come on top.
UniProt P26715: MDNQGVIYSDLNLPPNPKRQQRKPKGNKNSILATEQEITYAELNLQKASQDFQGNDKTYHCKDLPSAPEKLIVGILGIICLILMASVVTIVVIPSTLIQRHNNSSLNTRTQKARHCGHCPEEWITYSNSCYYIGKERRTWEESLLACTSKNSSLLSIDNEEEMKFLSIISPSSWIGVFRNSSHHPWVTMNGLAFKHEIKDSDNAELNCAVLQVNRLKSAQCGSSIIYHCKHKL
UniProt Q13241: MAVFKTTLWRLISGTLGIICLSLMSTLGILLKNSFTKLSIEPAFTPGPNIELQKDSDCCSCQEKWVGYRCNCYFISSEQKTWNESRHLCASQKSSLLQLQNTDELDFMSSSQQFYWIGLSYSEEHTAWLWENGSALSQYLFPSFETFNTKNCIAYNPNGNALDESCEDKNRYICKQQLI
UniProt P26717: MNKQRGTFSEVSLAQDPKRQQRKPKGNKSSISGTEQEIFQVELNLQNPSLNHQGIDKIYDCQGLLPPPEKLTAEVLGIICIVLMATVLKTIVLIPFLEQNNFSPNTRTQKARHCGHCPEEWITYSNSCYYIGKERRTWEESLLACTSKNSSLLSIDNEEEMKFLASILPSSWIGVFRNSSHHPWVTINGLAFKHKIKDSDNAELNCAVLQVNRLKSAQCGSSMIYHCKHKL

Assays:
[1] = target: T1, CD94/NKG2A (Homo sapiens, UniProt P26715+Q13241); assay: HLA-E tetramer binding to Ba/F3 cells co-transfected with CD94 and NKG2A; conditions: mouse Ba/F3 pro-B cells; 4° C. for 45 min
T1 construct: expressed in transfected cells; host or cells: mouse Ba/F3 pro-B cells (receptor); E. coli BL21 pLysS (HLA-E and β2m of the tetramer)
Protocol: (§1) (a) Ba/F3 cells transfected with CD94 and NKG2A were incubated with HLA-E/B7sp tetramers-(bold line), HLA-E/hsp60sp-tetramers (thin line), or control H-2Db/gp33-tetramers (dashed line). (b) Ba/F3 cells transfected with CD94, NKG2C and DAP-12 were incubated with HLA-E/B7sp-tetramers (bold line), HLA-E/hsp60sp-tetramers (thin line), or control H-2Db/gp33-tetramers (dashed line). (c) The NK cell line NKL was incubated with HLA-E/B7sp-tetramers (bold line), HLA-E/hsp60sp-tetramers (thin line), or control H-2Db/gp33-tetramers (dashed line). (d) HB-120 B-cell hybridoma (anti-MHC class I) was incubated with HLA-E/B7sp-tetramers (bold line), HLA-E/hsp60sp-tetramers (thin line), or control H-2Db/gp33-tetramers (dashed line). All incubations were done at 4° C. for 45 min in PBS supplemented with 1% FCS. […] This is one representative experiment of more than 5 that were conducted.
(§2) K562 (human HLA-class I negative erythroleukemia), and 721.221 (human HLA-class I low B-lymphoblastoid cell) were maintained in RPMI 1640 (Life Technologies, Gaithersburg, Md.) supplemented with 10% heat-inactivated FCS, 2 mM L-glutamine, 100 U/ml penicillin, and 100 μg/ml streptomycin. […]

[2] = target: T2, CD94/NKG2C (Homo sapiens, UniProt P26717+Q13241); assay: HLA-E tetramer binding to Ba/F3 cells co-transfected with CD94, NKG2C and DAP12; conditions: mouse Ba/F3 pro-B cells, 4° C. for 45 min
T2 construct: GFP; expressed in transfected cells; host or cells: mouse Ba/F3 pro-B cells (receptor); E. coli BL21 pLysS (HLA-E and β2m of the tetramer)
Protocol: as §1
K562 (human HLA-class I negative erythroleukemia), and 721.221 (human HLA-class I low B-lymphoblastoid cell) were maintained in RPMI 1640 (Life Technologies, Gaithersburg, Md.) supplemented with 10% heat-inactivated FCS, 2 mM L-glutamine, 100 U/ml penicillin, and 100 μg/ml streptomycin. Two human CD94/NKG2A^+ (but KIR−) cytotoxic NK cell lines (NKL, kindly provided by Dr. M. Robertson, Indiana University School of Medicine, Indianapolis, Ind.), and Nishi (provided by Dr. H. Wakiguchi, Dept of Pediatrics, Kochi Medical School, Japan) were grown in IMDM supplemented with 7% pooled heat-inactivated human AB+ serum, 200 U IL-2/ml (PeproTech Inc, Rocky Hill N.J.), 2 mM L-glutamine, 100 U/ml penicillin, and 100 μg/ml streptomycin (Life Technologies). Ba/F3 cells co-transfected with CD94 and NKG2A, CD94, DAP-12 and NKG2C-GFP or CD94 and DAP-12 have been described previously (Lanier et al., Immunity 6:371-378, 1997, incorporated herein by reference). HB-120 (pan-HLA class I specific hybridoma) was obtained from American Type Culture Collection, Rockville, Md., and was cultured in DMEM supplemented with 10% FCS, 2 mM L-glutamine, sodium pyruvate, HAT, 100 U/ml penicillin, 100 μg/ml streptomycin (Life Technologies). […]

[3] = tested on: NK cells expressing CD94/NKG2A (NKL); assay: HLA-E tetramer staining of NK cell lines and freshly isolated NK cells; assay type: binding, human
Protocol: as §1, §2

[4] = tested on: HB-120 B-cell hybridoma (anti-MHC class I); assay: HLA-E tetramer staining of control pan-HLA class I specific hybridoma; assay type: binding; conditions: HB-120, specific for HLA class I molecules
Protocol: as §1, §2

[5] = tested on: SF-NK cells, SF-T cells, PB-NK cells; assay: HLA-E tetramer staining of freshly isolated SF and PB cells of RA patients; assay type: binding, human; conditions: for tetramer staining of SF-T cells / tetramer staining of SF-NK cells: RA patient synovial fluid
From the text: Freshly isolated cells from PB (left) and SF (right) of a representative RA patient were stained with control tetramers (mouse H2-Kb molecules conjugated to streptavidine-PE, Y-axis on upper contour plots) and HLA-E tetrameric molecules (which were refolded in the presence of a VMAPRTVLL(SEQ ID NO: 3) peptide) conjugated to streptavidine-PE on Y-axis, lower contour plots) and CD56-FITC (X-axis). A gate was set on CD3-Cycrome-negative lymphocytes.
No staining of SF-NK cells or SF-T cells is observed with HLA-E/hsp60sp (upper row, right contour plot and lower row, right contour plot, respectively). Control tetramer staining (mouse H2-Kb molecules conjugated to streptavidine-PE) is shown to the left.
All 17 patients suffered from arthritis of the knee and had received therapeutic aspiration of SF at the time of analysis. RA patients fulfilled the American College of Rheumatology classification criteria for RA (Arnett, Arthritis Rheum. 31:315-324, 1988, incorporated herein by reference). All patients, except one person diagnosed with early oligoarthritis, received disease-modifying antirheumatic drugs. Extra-articular manifestations among the RA patients included diabetes mellitus (1 patient), Raynaud's phenomenon (2 patients), and secondary Sjögren's syndrome (1 patient). Paired samples of SF and PB from patients, and PB from 8 healthy female controls (mean age 52.7 yrs, range 49-61 yrs) were collected into preservative-free heparin and mononuclear cells were isolated by FICOLL-HYPAQUE (Amersham Pharmacia Biotech, Uppsala, Sweden) density gradient centrifugation according to standard protocols.
The HLA-E expression vector for tetramer production was provided by Dr Veronique Braud (Oxford, UK). Tetrameric HLA-E complexes were generated essentially as described previously (Braud et al., Nature 391:795-799, 1991, incorporated herein by reference). Briefly, HLA-E heavy chain, fused with a BirA substrate peptide (bsp) at the c-terminus, and human beta-2 microglobulin (β2m) were overexpressed in E. coli BL21 pLysS, purified from inclusion bodies and solubilized in a 8M urea solution containing DTT. Complexes of HLA-E-bsp, human β2m and synthetic peptide (VMAPRTVLL (SEC ID NO: 11), derived from the HLA-B*0701 leader sequence, Research Genetics, Huntsville, Ala.) were produced by in vitro refolding of the HLA-E-bsp, human β2m and peptide. Refolded complexes were purified by size exclusion chromatography on a Superose 12 column (Amersham Pharmacia Biotech), and subsequently biotinylated using BirA enzyme (Avidity, Denver, Colo.) following the manufacturers' instructions. Free biotin was removed using NAP-5 desalting columns (Amersham Pharmacia Biotech). The degree of biotinylation was approximately 90%, as assesed by a gel-shift assay. Tetramers were generated by mixing biotinylated HLA-E/β2m/peptide monomers with streptavidin-PE (Sigma) at a 4:1 molar ratio.

[6] = tested on: CD94/NKG2A+ T-cells; assay: HLA-E tetramer binding to T cells of peripheral blood from healthy donors; parameters: species or system human
From the text: To further clarify these mechanisms, studies are comtempated to determine whether CD94[NKG2 expressing human T-cells can be influenced by stressed induced changes in target cells. In this context, analysis of peripheral blood from healthy donors verifies that the subset of CD94/NKG2A^+ T-cells also binds to HLA-E/B7sp tetramers.

tetramer binding to CD94/NKG2A transfectants [1] | tetramer binding to CD94/NKG2C/DAP12 transfectants ([2]; listed as HLA-E/hsp60sp-tetramers) | Substance | tetramer binding to CD94/NKG2C/DAP12 transfectants [2] | tetramer binding to NK cells [3] | tetramer binding to control B cell hybridoma [4] | tetramer staining of SF-T cells [5] | tetramer staining of SF-NK cells ([5]; freshly isolated cells) | tetramer binding to T cells [6] | tetramer staining of SF-NK cells ([5]; freshly isolated cells, listed as HLA-E tetramers) | tetramer staining of PB-NK cells ([5]; freshly isolated cells, patient peripheral blood)
failed to bind | failed to bind | HLA-E/hsp60sp tetramers: biotinylated HLA-E heavy chain, β2m and hsp60sp peptide monomers mixed with streptavidin-phycoerythrin at a 4:1 molar ratio | failed to bind; also recorded: did not bind | failed to bind; also recorded: did not bind | bound to a similar extent | No staining | No staining | no binding could be detected | – | –
efficiently bound | – | HLA-E/B7sp tetramers: biotinylated HLA-E heavy chain, β2m and B7sp peptide monomers mixed with streptavidin-phycoerythrin at a 4:1 molar ratio | efficiently bound | confirmed by staining NK-cell lines | bound to a similar extent | a fraction of SF-T cells | brightly stain most SF-NK cells; also recorded: brightly stain most SF-NK-cells | binds | efficiently stained | poorly stained
